According to patent US8367069B2, “Cytotoxic T cell defined EGFR peptide and an optimized derivative peptide” (University of Pittsburgh—of the Commonwealth System of …, priority 2008, dated 2013):

Columns and labels:
[1] = system: PCI-30 SCCHN cells; assay: EGFR853-861-specific CTL recognition of mAb-treated PCI-30 SCCHN cells, IFN-γ ELISPOT; format: cell-based, human; details: 10 μg/mL for 18 hours at 37° C.; P≦0.05
[2] = system: PCI-30; assay: IFN-γ ELISPOT, stimulated CD8+ T cells against PCI-30 head and neck tumor cells; format: cell-based, human; details: substance added to CTL plus PCI-30 cells
Protocol: PBMCs were isolated by density centrifugation on Ficoll-Paque™ PLUS (GE Healthcare Bio-Science AB; SE-751 84 Uppsala) and used to prepare mature DCs using methods described in the art. PBMCs were resuspended at 5×10^7/ml in AIM-V medium (Invitrogen) and were incubated for 90 min in 75-cm^2 tissue culture flasks or six-well plates (37° C.; 5% CO2). Non-adherent (T cell-enriched) cells were gently washed out with HBSS and subsequently frozen. The plastic adherent cells were cultured in AIM-V medium supplemented with 1000 units/ml rhGM-CSF and 1000 units/ml rhIL-4. […] The stimulated CD8^+ T cells were analyzed for specificity in IFN-γ ELISPOT and ^51Cr release assays at day 21 and then every 7 days thereafter.
The recognition of APCs pulsed with polypeptide (EGFR853-861 or EGFR853-861L) and head and neck tumor cells was assessed by ELISPOT assays specific for hu-IFN-γ. […]
After incubation at 37° C. in 5% CO2 for 40 hours (IFN-γ ELISPOT assays), cells were removed by washings with PBS-0.05% Tween 20 (PBS-T). Captured cytokine was detected at sites of its secretion by incubation for 4 hours with biotinylated mAb anti-hIFN-γ (7-B6-1; Mabtech) at 2 μg/ml in PBS-0.5% BSA. […] Spot numbers and spot sizes were automatically determined with the use of computer-assisted video image analysis. […]

[3] = system: PCI-15B tumor cells; assay: EGFR-specific cross-presentation by DC incubated with PCI-15B tumor cells, IFN-γ ELISPOT / flow cytometry; format: cell-based, human; details: DC incubated with cetuximab-activated NK:PCI-15B cells; 10 μg/ml
Protocol: DC matured under these conditions were used as targets in an IFN-γ ELISPOT using EGFR853-861-specific CTL as effectors (see FIG. 13).
DC matured for 48 hour were used as targets in an IFN-γ ELISPOT or flow cytometry quantification using EGFR853-861 specific CTL as effectors (see FIGS. 14A-B).

[4] = system: EGFR853-861-specific CD3+CD8+ T cells; assay: EGFR853-861 tetramer staining of circulating CD3+CD8+ T cells of SCCHN patients; format: in vivo, human
Protocol: CD8+ T cells were stained with EGFR853-861-specific tetramers to quantitate the frequency of circulating CD3^+CD8^+ T cells specific for this EGFR epitope. EGFR853-861 tetramer staining of CD3^+CD8^+ T cells was performed using flow cytometry. The negative control HIV tetramer was used to stain both cetuximab-treated and naïve SCCHN patient PBMC.

cetuximab
EGFR853-861 peptide-specific CTL recognition of PCI-30 cells after incubation with mAb [1]: significantly enhanced | change in IFN-γ spots on addition to CTLs (stimulated with EGFR853-861) and PCI-30 cells [2]: increased | tumor antigen (EGFR)-specific cross-presentation by DC [3]: enhanced | frequency of EGFR-specific tetramer+ T cells in PBMC ([4]; HLA-A*0201+ cetuximab-treated vs cetuximab-naïve SCCHN patients, p<0.0022): significantly higher | numbers of EGFR853-specific T cells ([4]; subset of treated patients, as compared to healthy individuals): enhanced numbers
